This note sets out measurements from patent US7368477B2, “Benzofuranyl alkanamine derivatives and uses thereof” (Wyeth, priority 2005, dated 2008).

The chains behind the UniProt entries cited, without tags or fusion partners. Residues count along the entry.
UniProt P28335, 33-458: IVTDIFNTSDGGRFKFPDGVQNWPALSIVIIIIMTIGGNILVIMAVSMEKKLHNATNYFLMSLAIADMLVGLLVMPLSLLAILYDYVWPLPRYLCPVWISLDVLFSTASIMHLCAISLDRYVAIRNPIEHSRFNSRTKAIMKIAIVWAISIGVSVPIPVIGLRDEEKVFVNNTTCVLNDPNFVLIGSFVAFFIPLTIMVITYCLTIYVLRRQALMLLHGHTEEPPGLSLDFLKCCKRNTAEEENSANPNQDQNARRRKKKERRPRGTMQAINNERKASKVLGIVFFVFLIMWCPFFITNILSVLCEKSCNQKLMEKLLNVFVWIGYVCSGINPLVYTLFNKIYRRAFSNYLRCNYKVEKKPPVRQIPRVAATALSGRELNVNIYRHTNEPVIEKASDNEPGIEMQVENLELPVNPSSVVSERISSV

The target of assay [1] is T1, human 5-hydroxytryptamine-2C (h5-HT2C) receptor (Homo sapiens, UniProt P28335).
T1 construct: expressed in transfected cells; host or cells: CHO (Chinese Hamster Ovary) cells; membrane preparation
Nature of the assay: [125I]DOI binding to membranes of CHO cells expressing the human 5-HT2C receptor. The settings on record: reference compounds, [125I]DOI displacement, read-out: Ki (95% confidence interval).

The next assay has as its target human 5-HT2C receptor (Homo sapiens, UniProt P28335). In words: Calcium mobilization (FLIPR) in CHO cells stably expressing the human 5-HT2C receptor. The class given is cell-based. Particulars: reference compounds, h5-HT2C CHO cells. For orientation: A change in cytosolic calcium serves as a functional read-out for many receptors and channels.

With “1-(2,5-dimethoxy-4-iodophenyl)isopropylamine [DOI, reference compound]”, the Ki (commonly the equilibrium dissociation constant of an inhibitor or competing ligand from its target) in assay [1] is 6.2 nM. Further, the EC50 (commonly the concentration at which the effect is half-maximal) on human 5-HT2C receptor was 0.5 nM.
